Experiments:
[1] = biological target: T1, Kynurenine 3-monooxygenase (Homo sapiens, UniProt O15229)
[2] = biological target: T1, Kynurenine 3-monooxygenase; assay: Inhibition of full length human GST-tagged KMO expressed in baculovirus infected Sf9 insect cell membranes using kynurenine as substrate measured after 1 hr by RapidFire high-throughput mass spectrometric analysis
[3] = biological target: T1, Kynurenine 3-monooxygenase; remark: listed apart in the source

Sequences of proteins named here, by UniProt entry; tags and fusion partners are left off. A change or cut given only in a name is not applied to a line headed by its entry.
UniProt O15229: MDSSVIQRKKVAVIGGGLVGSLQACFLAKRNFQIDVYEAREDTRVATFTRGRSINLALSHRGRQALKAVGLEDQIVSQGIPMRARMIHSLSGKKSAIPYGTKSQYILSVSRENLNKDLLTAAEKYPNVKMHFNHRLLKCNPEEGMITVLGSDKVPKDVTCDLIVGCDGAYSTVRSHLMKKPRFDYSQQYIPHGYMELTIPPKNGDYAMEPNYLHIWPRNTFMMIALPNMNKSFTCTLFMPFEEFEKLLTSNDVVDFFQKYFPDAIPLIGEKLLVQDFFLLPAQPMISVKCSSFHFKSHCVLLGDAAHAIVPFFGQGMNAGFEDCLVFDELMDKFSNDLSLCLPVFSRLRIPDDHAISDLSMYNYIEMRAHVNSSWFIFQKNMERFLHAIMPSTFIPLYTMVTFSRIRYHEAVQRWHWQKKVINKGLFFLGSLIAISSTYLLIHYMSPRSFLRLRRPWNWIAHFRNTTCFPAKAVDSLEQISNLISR

Row | Compound | IC50 [1] [nM] | other results
1 | C[C@@H](Oc1cc2oc(=O)n(CCC(=O)O)c2cc1Cl)c1ccccn1.NC(CO)(CO)CO | 200 | 
2 | C[C@@H](Oc1cc2oc(=O)n(CCC(=O)O)c2cc1Cl)c1ccccn1 |  | Ki [2]: 0.1 nM
3 | CC(Oc1cc2oc(=O)n(CCC(=O)O)c2cc1Cl)c1ccccn1 (stereo not given) |  | IC50 [3]: 100 nM

Continued, in another order:

Row | IC50 [1] [nM] | Compound | other results
4 | 63100 | C[C@H](Oc1cc2oc(=O)n(CCC(=O)O)c2cc1Cl)c1ccccn1.NC(CO)(CO)CO | 
5 | 126 | CC(Oc1cc2oc(=O)n(CCC(=O)O)c2cc1Cl)c1ccccn1.NC(CO)(CO)CO (stereo not given) | 

— ChEMBL document CHEMBL4049435, “Development of a Series of Kynurenine 3-Monooxygenase Inhibitors Leading to a Clinical Candidate for the Treatment of Acute Pancreatitis” (J Med Chem, 2017)
